Measurements as given in PubChem BioAssay (NCI).
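Tested at 5 concentrations; 48 h exposure; 96-well plates; endpoints linearly interpolated, else capped at highest concentration. Here, GI50 denotes the concentration required for 50% inhibition of growth. TGI is the concentration that stops growth completely.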

How the values were obtained:
Test in all cases: NCI tumour cell line growth inhibition, 48 h; in the data active = GI50 below about 0.43 µM; inactive = the rest
[1] = test system: SK-MEL-28 melanoma
[2] = test system: OVCAR-8 ovarian
[3] = test system: MOLT-4 leukemia
[4] = test system: ACHN renal
[5] = test system: NCI/ADR-RES ovarian
[6] = test system: RPMI-8226 leukemia
[7] = test system: NCI-H226 lung
[8] = test system: MDA-MB-435
[9] = test system: KM12 colon
[10] = test system: NCI-H522 lung
[11] = test system: HOP-62 NSCLC
[12] = test system: A549 NSCLC
[13] = test system: SF-539 CNS
[14] = test system: M14 melanoma
[15] = test system: EKVX NSCLC
[16] = test system: IGROV1 ovarian
[17] = test system: U251 CNS
[18] = test system: SK-MEL-5 melanoma
[19] = test system: HS 578T breast
[20] = test system: BT-549 breast
[21] = test system: PC-3 prostate
[22] = test system: DU-145 prostate
[23] = test system: UACC-62 melanoma
[24] = test system: HCT-15 colon
[25] = test system: CAKI-1 renal
[26] = test system: SN12C renal
[27] = test system: TK-10 renal
[28] = test system: SF-268 CNS
[29] = test system: OVCAR-4 ovarian
[30] = test system: HL-60(TB) leukemia
[31] = test system: SK-OV-3 ovarian
[32] = test system: RXF 393 renal
[33] = test system: SW-620 colon
[34] = test system: SNB-19 CNS
[35] = test system: MCF7 breast
[36] = test system: COLO 205 colon
[37] = test system: OVCAR-3 ovarian
[38] = test system: OVCAR-5 ovarian
[39] = test system: SF-295 CNS
[40] = test system: HT29 colon
[41] = test system: HCT-116 colon
[42] = test system: LOX IMVI melanoma
[43] = test system: MALME-3M melanoma
[44] = test system: T-47D breast
[45] = test system: 786-0 renal
[46] = test system: SK-MEL-2 melanoma
[47] = test system: UO-31 renal
[48] = test system: MDA-N
[49] = test system: MDA-MB-231 breast
[50] = test system: HOP-92 NSCLC
[51] = test system: A498 renal
[52] = test system: NCI-H23 lung
[53] = test system: SNB-75 CNS
[54] = test system: NCI-H322M lung

O=[As]c1ccc(S(=O)(=O)NCCO)cc1 (stereo not drawn)
inactive: GI50 [1] > 100 µM | GI50 [2] > 100 µM | GI50 [3] > 100 µM | GI50 [4] > 100 µM | GI50 [5] > 100 µM | GI50 [6] > 100 µM | GI50 [7] > 100 µM | GI50 [8] > 100 µM | GI50 [9] > 100 µM | GI50 [10] > 100 µM | GI50 [11] > 100 µM | GI50 [12] > 100 µM | GI50 [13] > 100 µM | GI50 [14] > 100 µM | GI50 [15] > 100 µM | GI50 [16] > 100 µM | GI50 [17] > 100 µM | GI50 [18] > 100 µM | GI50 [19] > 100 µM | GI50 [20] > 100 µM | GI50 [21] > 100 µM | GI50 [22] > 100 µM | GI50 [23] > 100 µM | GI50 [24] > 100 µM | GI50 [25] > 100 µM | GI50 [26] > 100 µM | GI50 [27] > 100 µM | GI50 [28] > 100 µM | GI50 [29] > 100 µM | GI50 [30] > 100 µM | GI50 [31] > 100 µM | GI50 [32] > 100 µM | GI50 [33] > 100 µM | GI50 [34] > 100 µM | GI50 [35] > 100 µM | GI50 [36] > 100 µM | GI50 [37] > 100 µM | GI50 [38] > 100 µM | GI50 [39] > 100 µM | GI50 [40] > 100 µM | GI50 [41] > 100 µM | GI50 [42] > 100 µM | GI50 [43] > 100 µM | GI50 [44] > 100 µM | GI50 [45] > 100 µM | GI50 [46] > 100 µM | GI50 [47] > 100 µM | GI50 [48] > 100 µM | GI50 [49] > 100 µM | GI50 [50] > 100 µM | GI50 [51] > 100 µM | GI50 [52] > 100 µM | GI50 [53] > 100 µM | GI50 [54] > 100 µM
> 100 µM: TGI [1] | TGI [2] | TGI [3] | TGI [4] | TGI [5] | TGI [6] | TGI [7] | TGI [8] | TGI [9] | TGI [10] | TGI [11] | TGI [12] | TGI [13] | TGI [14] | TGI [15] | TGI [16] | TGI [17] | TGI [18] | TGI [19] | TGI [20] | TGI [21] | TGI [22] | TGI [23] | TGI [24] | TGI [25] | TGI [26] | TGI [27] | TGI [28] | TGI [29] | TGI [30] | TGI [31] | TGI [32] | TGI [33] | TGI [34] | TGI [35] | TGI [36] | TGI [37] | TGI [38] | TGI [39] | TGI [40] | TGI [41] | TGI [42] | TGI [43] | TGI [44] | TGI [45] | TGI [46] | TGI [47] | TGI [48] | TGI [49] | TGI [50] | TGI [51] | TGI [52] | TGI [53] | TGI [54]
